These results are taken from PMC12535493, “Assessment of Intramuscular Verapamil as Pharmacological Countermeasure in a Rat Model of Organophosphate DFP-induced Status Epilepticus” (2025).

The data set has as its system rats. Description: Tolerability of i.m. VPM (pilot doses; distress and discomfort grading).

As for `COc1ccc(CCN(C)CCCC(C#N)(c2ccc(OC)c(OC)c2)C(C)C)cc1OC` (stereo not drawn), the Ambulatory deficits entry (10 mg/kg i.m. b.i.d. 3 days) is recorded as “No ambulatory deficits”. For the same compound, for the setting “10 and 20 mg/kg, i.m., 1 h after DFP-SE, rats (n = 5)”, the “Tolerability of pilot doses” value was “safely tolerated both doses”. Also, for the setting “last day of i.m. injections, 10 mg/kg b.i.d. 3 days, resolved without intervention”, the “Distress and discomfort grade (none, mild, moderate, severe)” value is recorded as “Mild discomfort”.
